One compound from patent publication US9415034B2, “Inhibitors and enhancers of uridine diphosphate-glucuronosyltransferase 2B (UGT2B)” (NATIONAL DEFENSE MEDICAL CENTER, priority 2005, dated 2016) can be followed below.

For series [1] the following is noted: SD rat, oral nalbuphine 100 mg/Kg, with or without capillarisin 4 mg/Kg, Mean ± SE, n = 6.
For series [2] the following is noted: SD rat, intravenous nalbuphine, with or without capillarisin, Mean ± SE, n = 6.

Like-named read-outs stand apart in the source and are kept apart here.

Turning to `Oc1ccc2c3c1O[C@H]1[C@@H](O)CC[C@@]4(O)[C@@H](C2)N(CC2CCC2)CC[C@]314` [Nalbuphine, nalbuphine], the V/F was determined as 2919.123 ± 863.25 L/kg in series [1] and 42.194 ± 6.492 L/kg in series [2].
